Test system: HBV-DNA transgenic mice
Test: HBV transgenic mice: IFN-γ secreting cells, ELI-SPOT
Assay type: in vivo
Conditions: 30th day after end of immunization; IFN-α2b at 15000 U/mouse
Description: FIG. 6: HBV-DNA transgenic mice (ayw type Kunming mice transfected with the complete gene of HBV (1.3 Kb) were grouped randomly, and each group had five mice. The mice were administered subcutaneously with one of three doses (namely, 10, 100 and 1000 U/mouse) below both costal regions and at both postpede palmas, and the immunizations were enhanced once a week for three times. INF-α2b (15000 U/mouse) was included as a positive control drug, and physiological saline was included as negative control drug. Thirty days after the end of the administration, spleens were removed from mice, and spleen lymphocytes were isolated and stimulated with 10 ng/ml test drug in vitro for three days. The levels of cytokines such as IFN-γ, IL-4, etc. in supernatant were measured by the ELISA method, and the activity of the test drug (CH3(CH2)14COKSSQYIKANSKFIGITEAAASIVSPFIPLLGGGDPRVRGLYFPA) (SEQ ID NO:5) for inducing the differentiation of T cells into Th1/Th2 type was analyzed. […] The expression frequency of IFN-γ secreting cells in peripheral blood lymphocytes was measured by the ELI-SPOT method in said supernatant. […] In the group of administration with IFN-α2b, the highest 1250 IFN-γ secreting cells/10^6 PBMC (D) were detected. […]

With “IFN-α2b: positive control drug, 15000 U/mouse [reference compound]” the “highest expression frequency of IFN-γ secreting cells” value was 1250 IFN-γ secreting cells/10^6 PBMC.

From patent publication US8591908B2, “Immunogen for preparation of therapeutic vaccines or drugs for treatment of hepatitis B and the producing method and use thereof” (Institute of Immunology, PLA, priority 2002, dated 2013)
